Reference: patent US20250092058A1 (priority 2018, published 2025)

Sequences of proteins named here, by UniProt entry; tags and fusion partners are left off. A change or cut given only in a name is not applied to a line headed by its entry.
UniProt P17844: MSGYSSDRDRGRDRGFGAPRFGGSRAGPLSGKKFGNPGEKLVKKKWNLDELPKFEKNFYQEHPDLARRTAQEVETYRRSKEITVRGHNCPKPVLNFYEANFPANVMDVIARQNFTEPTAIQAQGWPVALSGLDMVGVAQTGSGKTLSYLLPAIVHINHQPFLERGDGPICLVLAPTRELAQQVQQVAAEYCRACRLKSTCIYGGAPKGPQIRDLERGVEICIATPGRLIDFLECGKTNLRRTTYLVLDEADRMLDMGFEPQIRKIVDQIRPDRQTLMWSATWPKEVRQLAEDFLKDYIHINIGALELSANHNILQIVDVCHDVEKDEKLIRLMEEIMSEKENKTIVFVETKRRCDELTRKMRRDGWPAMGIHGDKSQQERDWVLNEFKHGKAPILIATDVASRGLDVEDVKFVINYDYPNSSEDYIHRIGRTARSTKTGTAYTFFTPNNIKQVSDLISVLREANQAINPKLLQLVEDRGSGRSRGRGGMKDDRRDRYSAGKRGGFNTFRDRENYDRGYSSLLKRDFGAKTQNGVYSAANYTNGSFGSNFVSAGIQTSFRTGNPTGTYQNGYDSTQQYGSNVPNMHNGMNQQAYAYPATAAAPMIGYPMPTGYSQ

Key:
[1] = target: T1, Top1 (Homo sapiens, UniProt P11387); assay type: biochemical
T1 sequence (P11387 1-765): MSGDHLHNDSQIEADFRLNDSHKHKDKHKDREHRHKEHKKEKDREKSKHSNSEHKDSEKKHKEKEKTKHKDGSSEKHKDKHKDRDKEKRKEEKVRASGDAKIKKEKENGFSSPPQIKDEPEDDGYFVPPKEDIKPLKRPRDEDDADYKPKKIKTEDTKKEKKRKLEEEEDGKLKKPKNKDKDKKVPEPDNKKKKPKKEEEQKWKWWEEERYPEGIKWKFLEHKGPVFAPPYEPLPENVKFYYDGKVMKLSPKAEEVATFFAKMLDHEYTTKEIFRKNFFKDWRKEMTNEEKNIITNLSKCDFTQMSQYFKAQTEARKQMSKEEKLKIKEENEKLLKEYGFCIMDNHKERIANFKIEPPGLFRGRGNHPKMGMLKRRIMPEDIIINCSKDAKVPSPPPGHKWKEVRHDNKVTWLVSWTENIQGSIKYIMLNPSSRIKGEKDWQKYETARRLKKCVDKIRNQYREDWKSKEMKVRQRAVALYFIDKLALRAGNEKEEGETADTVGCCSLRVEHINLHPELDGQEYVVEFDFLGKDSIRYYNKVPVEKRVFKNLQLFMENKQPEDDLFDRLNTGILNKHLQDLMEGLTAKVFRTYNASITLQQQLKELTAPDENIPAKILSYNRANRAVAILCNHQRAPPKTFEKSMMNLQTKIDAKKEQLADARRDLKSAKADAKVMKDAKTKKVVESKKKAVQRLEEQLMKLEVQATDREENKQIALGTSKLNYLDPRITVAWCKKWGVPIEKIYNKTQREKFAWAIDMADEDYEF

[2] = target: T2, DDX5 (Homo sapiens, UniProt P17844); assay type: cell-based
T2 construct: endogenous in cells; host or cells: HCT116

[3] = target: DDX5-blocked Top1 (Homo sapiens, UniProt P17844); assay type: biochemical
Procedure: Experimental condition: Top1 was used for 1 IU; DDX5 was used in 100 nM; and 1 μg supercoiled pRB322 DNA was used.

[4] = tested on: HCT116 cells
[5] = tested on: HCT116 cells; remark: listed apart in the source
[6] = tested on: XIAP, Bcl-2, Bax, γH2AX and Survivin; details: 0, 50, 100 nM, 72 hours

Structure (SMILES): CC[C@@]1(O)C(=O)OCc2c1cc1n(c2=O)Cc2c-1nc1cc3c(cc1c2-c1ccc(F)c(OC)c1)OCO3 [Compound 7h]
- concentrations blocking Top1 nicking SC DNA activity [1]: could only be blocked by 5 and 50 μM
- DDX5 expression [2]: able to decrease DDX5 expression
- unblocking of DDX5-blocked Top1 activity [3]: can unblock DDX5-blocked Top1 activity
- colony formation [4]: significantly inhibited the proliferation-induced colony formation
- cell migration [5]: concentration-dependent inhibition of HCT116 cell migration
- expression of Bax and γH2AX [6]: upregulated
- expression of XIAP, Bcl-2 and Survivin [6]: downregulated
